# scFv variants of Ab-14 (light chain) against a SARS-CoV-2 spike peptide

Target peptide (SARS-CoV-2 spike, HR2 region): PDVDLGDISGINAS

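The starting antibody came from a phage panning campaign against this peptide. The variants were designed computationally from a first round of random CDR variants and then made and measured. Group labels follow the data file (Ctrl: baseline library sampled from a position-specific scoring matrix, with some repeated check sequences; Rand: our label for a block that the file lists under HC and that is probably the random mutants of the ten best first-round binders; En: ensemble of fine-tuned language models; GP: Gaussian process model; HC: hill climbing; Gen: genetic algorithm; Gibbs: Gibbs sampling; a sequence that several methods proposed may carry one label only). The assay is AlphaSeq: two haploid yeast populations carry antibody and antigen on their surface. The frequency of each diploid, read from paired DNA barcodes, reflects how well the two displayed proteins bind. The ratio of observed to expected reads was calibrated, replicate by replicate, on BCL2-family standards whose Kd was known from biolayer interferometry. There are six technical replicates.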

Parent scFv Ab-14: VH joined to VL by the linker GGGGSGGGGSGGGGS. Changes lie in the light chain CDRs alone.
VH: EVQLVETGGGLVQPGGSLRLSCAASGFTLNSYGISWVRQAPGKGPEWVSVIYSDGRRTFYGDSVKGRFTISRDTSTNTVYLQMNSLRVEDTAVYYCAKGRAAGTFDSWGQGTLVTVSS
VL: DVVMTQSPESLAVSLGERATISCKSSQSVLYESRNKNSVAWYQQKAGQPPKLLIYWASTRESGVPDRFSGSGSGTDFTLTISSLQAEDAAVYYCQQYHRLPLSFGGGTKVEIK

Each variant is given by its three light chain CDRs, as the data file delimits them; those of the parent are KSSQSVLYESRNKNSVA, WASTRES, QQYHRLPLS. Values are apparent Kd, the geometric mean of the replicates that gave a signal; lower means stronger binding. "no signal" means that the variant was in the library but no mating with the target was seen in any replicate; the authors take this as a sign of poor binding, and no number exists. The authors' rule: three or more of the six replicates give a measured affinity, fewer mean a poor binder.

CDR-L1,CDR-L2,CDR-L3,group,Kd (apparent),replicates with signal,signal with controls
KSSNSDFYESRNKNSVA,WASTRES,QQYHRLPLS,Ctrl,9.0 nM,6/6,0/18
KLSQSVLYESRMWNSVA,NASTRES,QQYHRLPLS,GP_Gen,890 pM,6/6,1/18
KSSQSVLYEERNKNSVA,WASTRES,QQGFRLPLS,Ctrl,no signal,0/6,0/18
KSSQSVMYESRYKNSVA,WASTRES,QQYHRLPLS,Ctrl,600 nM,3/6,2/18
RFSQTEEMGIRDYNAVA,NGSTVNT,QHYSRLPIS,En_Gibbs,9.7 nM,6/6,0/18
KLAMYLEMWARTKHAVA,DANHKTS,QQYNRLPIS,En_Gibbs,1.3 nM,6/6,0/18
KSSQSVLYESRNKNSVA,WASTREM,QQYHRLPLS,Ctrl,22 nM,6/6,2/18
KLSQSWLYLSRNSNAVA,EASQREQ,QQYHRLPLS,GP_Gibbs,920 pM,6/6,1/18
LSSISYLYESPNKNSVA,EASTRED,QQYHRLPLS,GP_HC,2.4 nM,6/6,1/18
KVSQSQLYESRNKNSVA,NASTREV,QQYHRLPLS,GP_Gen,1.3 nM,6/6,2/18
KLMQSVLYESRNKNSVA,NASTREM,QQYHRLPLS,GP_Gen,1.3 nM,6/6,0/18
QLRDDIWADGMNKGSIA,ANEVLKD,QQYNRLPLS,En_Gibbs,6.7 nM,6/6,2/18
KLSMWTYGPTEDKSNVA,NDEMRWQ,QQYDKLPLI,En_Gibbs,no signal,0/6,0/18
KLSISFLYESRNKNSVA,EASTRES,QQYHRLPLS,GP_HC,480 pM,6/6,1/18
KLMQVTGYESYLRNSVA,QMSTRAE,QDYHRLPLS,En_HC,2.0 nM,6/6,0/18
MISDLTYYGSRNVNSVA,DLSTRGS,QQYHRLPLS,En_HC,2.1 nM,6/6,0/18
KVQLGLERYNGDYSSVA,NETQKGD,QQYFQLPLG,En_Gibbs,32 nM,6/6,0/18
NSSQSWLYESRNKNSVA,NGNTRES,QQYHRLPLS,GP_HC,350 pM,6/6,0/18
HVSSMLMAGGGIINSVA,GNKLLER,QQYMRLPLS,En_Gibbs,2.6 nM,6/6,1/18
KSSDSVLYESRNKDSLA,EASTRES,QQYHRLPLS,Ctrl,5.7 nM,6/6,1/18
KVSQSWDYESRNKNSVA,NASTRES,QQYHRLPLS,GP_Gen,1.7 nM,6/6,1/18
KLQQSVLYESRNKNSVA,NASQRLS,QQYHRLPLS,GP_Gen,800 pM,6/6,2/18
KSSQSVLYESRNKNSVA,HASTRES,QQYHVLPLS,Ctrl,18 nM,6/6,0/18
KVSQSNLYESRNKNNVA,EASTRES,QQYHRLPLS,GP_Gen,550 pM,6/6,2/18
KFQQSQLYESRNMNSVA,NASQREQ,QQYHRLPLK,GP_Gibbs,2.0 nM,6/6,0/18
KHSQSVLYESRTKNSWA,NASSRES,TQYHRLPLS,Rand,no signal,0/6,0/18
KFSQSVAYESRTKNSVA,DASTRES,QQYHRLPLS,GP_HC,1.3 nM,6/6,1/18
KVYQGINTHYGAHNSIA,QEETRLQ,QQYAHLPLS,En_Gen,50 nM,6/6,1/18
KSLQSWLYESRDKNSVA,HASTRED,QQYHRLPLS,GP_HC,no signal,0/6,1/18
KSSQSVLYESRNKNSVA,SASTREF,QQYMRLPLS,Ctrl,840 pM,6/6,0/18
NIYQAMHTLSQNRNNVA,DVNERGQ,QQYFRLPLS,En_Gen,860 pM,6/6,0/18
TISQVMNTLTRHGNNVA,DLAERES,QQYFRLPLS,En_Gen,2.0 nM,6/6,0/18
QVFFDLFEQGKRSQPIA,GGSMRET,QQYARLPLI,En_Gibbs,1.7 nM,6/6,0/18
MFSQGVMVGWLTRNSVA,NSETRES,QQYDRLPLI,En_HC,54 nM,5/6,0/18
KSSISYLIESRNKNSVV,EASTRES,QQYHRLPLS,Rand,no signal,0/6,0/18
NMHNMCYQYENYGNSIA,QANLREN,QQYSRLPFT,En_Gibbs,11 nM,6/6,0/18
KSSQSVLYEMRNKNSVA,WANTRCS,QQQHRLPLS,Ctrl,43 nM,1/6,1/18
KLPQSVDYESRYKNSVA,EASTRES,QQYHRLPLS,Ctrl,2.6 nM,6/6,4/18
KLPQSWLYESRNKNSVA,NASQRLS,QQYHRLPLS,GP_Gen,940 pM,6/6,1/18
VMFGGLNFDNIEHQAIA,NVDVREK,QQYHRLPLQ,En_Gibbs,3.9 nM,6/6,1/18
KSSQSVLYESQNKNSVA,WALTRES,QQYHRLPLS,Ctrl,35 nM,1/6,1/18
KVFISVLLESRNKNSVA,EASTRES,QQYHRLPLS,GP_HC,11 nM,6/6,0/18
KSSQSVLYESRNTNSVA,AASTRES,QQYHMLPLS,Ctrl,5.3 nM,6/6,0/18
KLSQSVLYESRNKNNVA,NASTRCS,QQYHRLPLS,GP_Gen,350 pM,6/6,1/18
KSEQSVLYESRNKNNVA,HASTRED,QQYARLPLS,GP_HC,590 pM,6/6,2/18
MISQVTGLGQRQRNNVA,QTSMRET,QQYDRLPLI,En_Gen,11 nM,6/6,0/18

Picked from the list: the 6 lowest averages where every replicate gave a value.

| CDR-L1 | CDR-L2 | CDR-L3 | group | Kd (apparent) | replicates with signal | signal with controls |
|---|---|---|---|---|---|---|
| NSSQSWLYESRNKNSVA | NGNTRES | QQYHRLPLS | GP_HC | 350 pM | 6/6 | 0/18 |
| KLSQSVLYESRNKNNVA | NASTRCS | QQYHRLPLS | GP_Gen | 350 pM | 6/6 | 1/18 |
| KLSISFLYESRNKNSVA | EASTRES | QQYHRLPLS | GP_HC | 480 pM | 6/6 | 1/18 |
| KVSQSNLYESRNKNNVA | EASTRES | QQYHRLPLS | GP_Gen | 550 pM | 6/6 | 2/18 |
| KSEQSVLYESRNKNNVA | HASTRED | QQYARLPLS | GP_HC | 590 pM | 6/6 | 2/18 |
| KLQQSVLYESRNKNSVA | NASQRLS | QQYHRLPLS | GP_Gen | 800 pM | 6/6 | 2/18 |

Background: pairings of all light chain designs with three empty control strains gave a value in 4% of cases (median 430 nM, 5th percentile 38 nM). Values in that range, when seen in few replicates, are hard to tell from nonspecific mating. Also given: how often the same scFv was detected with the empty control strains. A sequence measured in both rounds can read differently, since the two assays cover different ranges.

Values reported by Li et al. 2023, doi:10.1038/s41467-023-39022-2 (FLAb copy).